Results from patent US20250154457A1, “T-CELLS FOR ANTI-HIV CAR-T THERAPY AND METHODS OF USE” (City of Hope, priority 2021, published 2025).

Assays:
T-cells = assay: Growth and phenotype of enrichment anti-HIV CAR T-cells after 6TG selection; format: cell-based
From the text: However, the growth of the 6TG-treated anti-HIV CAR T-cells growth was equivalent to anti-HIV CAR-T-cells that were not subjected to 6TG treatment (FIG. 14B).
Phenotypically, Applicant observed that the CD4 ratio dropped ˜10% following 6TG treatment (FIG. 14C), which could have potential consequences for CAR functionality^153.

Jurkat cells = assay: 6TG selection of shHPRT-N6 CAR expressing Jurkat cells; format: cell-based; details: 1 uM 6TG for 5 days, flow cytometry
Protocol: FIGS. 2A-2D. 6TG selection of HPRT repressed CAR T-cells. FIG. 2A. Quantitative PCR analysis of HPRT expression following transfection of shHPRT plasmid. Untransfected Jurkat cells were used as a control. FIG. 2B. N6 CAR (control) or shHPRT-N6 CAR were transduced into Jurkat cells and co-cultured with either gp120 expressing HEK293 cells or HEK293 parental cells for 24 hours. Following incubation, the Jurkat cells were analyzed for CD69 expression by flow cytometry. FIG. 2C. N6 CAR or shHPRT-N6 CAR expressing Jurkat cells were incubated in either 0, 1, or 3 uM of 6TG for four days and analyzed for cell counts and viability through a trypan blue assay. FIG. 2D. shHPRT-N6 CAR expressing Jurkat cells cultured in 0 or 1 uM 6TG for 5 days were analyzed for CAR expression through flow cytometry.

SMILES: Nc1nc2nc[nH]c2c(=S)[nH]1 [6TG, 6-thioguanine]
- CD45RO and CD45RA ratios (T-cells; following 6TG selection): no observable difference
- CD62L ratios (T-cells; following 6TG selection): noticeable decrease
- drop of CD4 ratio (T-cells; following 6TG treatment): ~10%
- anti-HIV CAR expressing cells in selected population (Jurkat cells): > 90%
